The assay deals with G-protein coupled receptor 35 (Homo sapiens, UniProt Q9HC97). The assay is described as follows: Agonist activity at GPR35 in human HT-29 cells assessed as receptor internalization at 10 uM after 1 hr by fluorescence confocal imaging. Type of assay: functional, cell-based.

Amino acid sequences for entries named in this document (tags omitted). A change or cut given only in a name is not applied to a line headed by its entry.
UniProt Q9HC97: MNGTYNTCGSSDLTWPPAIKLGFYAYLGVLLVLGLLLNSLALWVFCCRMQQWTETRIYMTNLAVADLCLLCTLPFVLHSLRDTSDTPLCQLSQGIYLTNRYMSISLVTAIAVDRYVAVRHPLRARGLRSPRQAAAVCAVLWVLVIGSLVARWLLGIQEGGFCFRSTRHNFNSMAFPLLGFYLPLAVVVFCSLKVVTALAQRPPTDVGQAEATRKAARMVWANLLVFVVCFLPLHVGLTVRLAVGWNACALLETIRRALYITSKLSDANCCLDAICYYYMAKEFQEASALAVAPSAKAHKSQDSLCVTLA

Activity calls are given as the source filed them. No cut-off for these calls is given here.

For the compound `CCOC(=O)c1sc2c(Br)csc2c1C`, the outcome was inactive.

The values are drawn from ChEMBL document CHEMBL1914282 (J Med Chem, 2011).
